From ChEMBL document CHEMBL1134074, “Identification of novel potent hydroxamic acid inhibitors of peptidyl deformylase and the importance of the hydroxamic acid functionality on inhibition” (Bioorg Med Chem Lett, 2001)

Target: T1, Peptide deformylase (Staphylococcus aureus subsp. aureus Mu50, UniProt P68825)
T1 sequence (P68825 whole entry): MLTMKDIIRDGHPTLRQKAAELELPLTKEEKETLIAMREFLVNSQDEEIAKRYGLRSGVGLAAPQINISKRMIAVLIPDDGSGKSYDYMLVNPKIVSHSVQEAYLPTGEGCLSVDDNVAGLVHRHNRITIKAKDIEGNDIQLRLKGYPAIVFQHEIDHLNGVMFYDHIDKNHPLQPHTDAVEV
Assay: Inhibition of Peptidyl deformylase (PDF)

- IC50: 46 nM
Compound: O=C(NO)C(NCc1cccc(C(F)(F)F)c1)c1cccc2ccccc12 (stereo unspecified)
